Measurements from PubChem BioAssay AID504614 (Sanford-Burnham Center for Chemical Genomics, 2011).
The entries are a selection whose mix differs from that of the whole data set. The source made the active and inactive calls.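 How the source made its calls: active means mean inhibition of at least 40% at 20 µM; inactive means the rest.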

assay: apoptosome-driven caspase-3 activation blockers – biochemical, fluorescence, DEVD-Rh110, 20 µM, confirmation (AID 504614); conditions: reconstituted apoptosome, caspase-3 DEVD-Rh110 fluorescence; at 20 µM; stronger effect = higher value;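 further: plate controls were DMSO wells for no effect and DEVD-CHO caspase inhibitor control wells for full effect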

SMILES | inhibition
CCc1nc2c(n1)c1c(non1O)c1c2no[n+]1[O-] | inactive: 7.46%
